From patent US20040102438A1, “Gaba-receptor modulators for the treatment of neurodegenerative diseases of the eye” (priority 2001, published 2004)

Assay: Properties of the active ingredients (solubility, lipophilicity)
Format: physicochemical

CCCC(C)C1(CC)C(=O)N=C([O-])NC1=O.[Na+] (stereo not shown) [pentobarbital-Na]
lipophilic / hydrophilic character: hydrophilic
